Measured values taken from paper PMC7534336, “New classes of potent heparanase inhibitors from ligand-based virtual screening” (Journal of Enzyme Inhibition and Medicinal Chemistry, 2020).

Protein sequences, listed by entry. Tags and fused reporters are not part of them. Chains listed by the source or under a name are the forms on record and can include a tag or linker.
UniProt Q9Y251, with tags, fused parts or gaps limits assumed: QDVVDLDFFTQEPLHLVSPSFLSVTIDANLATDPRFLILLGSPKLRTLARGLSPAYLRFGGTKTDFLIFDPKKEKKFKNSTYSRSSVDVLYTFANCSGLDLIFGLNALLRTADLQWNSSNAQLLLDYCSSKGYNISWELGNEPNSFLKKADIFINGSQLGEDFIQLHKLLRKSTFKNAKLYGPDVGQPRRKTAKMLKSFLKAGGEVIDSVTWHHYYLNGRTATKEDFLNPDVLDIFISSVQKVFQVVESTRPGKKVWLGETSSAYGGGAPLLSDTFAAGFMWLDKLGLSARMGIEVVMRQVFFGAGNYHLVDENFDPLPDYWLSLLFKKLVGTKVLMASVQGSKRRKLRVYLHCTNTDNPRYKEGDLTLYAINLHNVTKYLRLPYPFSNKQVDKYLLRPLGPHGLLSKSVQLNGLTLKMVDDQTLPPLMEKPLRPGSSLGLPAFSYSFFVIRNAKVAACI

Biological target: human GS3 heparanase (Homo sapiens, UniProt Q9Y251)
Test: fondaparinux assay of heparanase enzymatic activity (WST-1 colorimetric)
Type: biochemical
Conditions: read-out: IC50 (µM) ± SD, heparanase inhibitory activity; fondaparinux assay on human GS3 heparanase; mean of triplicates; tested form: Na salt

For `O=C(Nc1ccc2c(O)c(N=Nc3ccccc3)c(S(=O)(=O)O)cc2c1)Nc1ccc2c(O)c(N=Nc3ccc(C(=O)O)cc3)c(S(=O)(=O)O)cc2c1`, the IC50 was 1.66 µM.
